{
  "source": "patent US20240294535A1",
  "about": "“IMIDAZOTRIAZINE THIOBENZAMIDE DERIVATIVE, AND PREPARATION METHOD AND APPLICATION THEREOF” (Yunbaiyao Zhengwu Science and Technology (Shanghai) Co., …, priority 2023, published 2024)",
  "tested_on": "SPF Kunming mice",
  "details": "intragastrically administered",
  "data": [
    {"smiles": "CNC(=S)c1ccc(-c2cnc3ncc(C(=O)c4ccc5ncccc5c4)n3n2)cc1F", "note": "[Compound 22]", "values": [
      {"measurement": "LD50", "value": 289, "unit": "mg/kg"}
    ]}
  ]
}
